Experiments:
[1] = Thermodynamic solubility, shake-flask, 10 mM PBS (0.15 M KCl) pH 7, 25 °C, 1 h, HPLC-UV; settings: pH 7, aqueous buffer, thermodynamic from solid, Exp.LogS, PROTAC pairs and building blocks
Description: Its measurement only requires an initial DMSO stock solution which is precipitated by the addition of an aqueous phase.[23],[24] Here, we measured thermodynamic solubility, often determined in late lead optimization, which efficiently considers the solubility value when the equilibrium with the stable phase or polymorph has been reached.
Solubility was determined in 10 mM PBS (0.15 M KCl) at pH 7, 25 °C. A 1–2 mg sample of each molecule was added to the same quantity (1–2 mL) of the mentioned buffer to obtain 1 mg/mL solutions in the vial. Samples were then submitted to 25 °C and magnetic stirring (500 rpm) for 1 h. […] The amount of dissolved compound in each sample was then quantified, in duplicate, via HPLC using ultraviolet (UV) spectrometric detection.
Variable volumes of pure DMSO (0–100 μL) were added separately to small and defined (1 mg) quantities of each compound to obtain clear solutions. […] Calibration points were then measured via HPLC-UV.
The mobile phase consisted of a solution of acetonitrile (ACN) and 20 mM ammonium acetate buffer (AAB), pH 7, freshly prepared. A 10 μL volume of each sample (volume of injection) was injected at an isocratic 1 mL/min flow rate analyzed at 30 °C (oven temperature). […]
Injections were performed in duplicate for each molecule’s calibration points. […] Samples were then injected in duplicate, and the AUC averages and standard deviations were calculated. […]

physchem = settings: pH 7
Description: PROTAC experimental solubility was first correlated with lipophilicity descriptors (log P is implemented in the general solubility equation (GSE)[27]). As described by some of us,[16] BRlogD represents a validated,[28] very useful and straightforward chromatographic descriptor for the logarithm of the distribution coefficient in the n-octanol/water system (log D) of neutral and cationic bRo5 molecules.
The mobile phase consisted of an isocratic solution of 20 mM ammonium acetate (pH 7.0) and acetonitrile, 40–60%, respectively (v/v).[16] Samples were dissolved in buffer/ACN and injected into the XBridge column at a flow rate of 1.0 mL/min at 30 °C. Retention times were determined in duplicate, and the dead time, t0, was recorded as the baseline disturbance.

[2] = pH 7.0, extrapolated to 0% acetonitrile
Description: The logarithm of the capacity factor of an IAM column system, extrapolated at 100% water (log kw^IAM), is also an experimental descriptor of the lipophilicity of drugs since it mimics the interaction between the polar heads of the membrane phospholipids and the drug in solution.[29]
The mobile phase consisted of a solution of 20 mM ammonium acetate (pH 7.0) in a mixture with acetonitrile at various percentages (from 10 to 50%, v/v). Samples were dissolved in buffer/ACN and injected into the previously mentioned IAM column at a flow rate of 1.0 mL/min at 30 °C. Chromatographic retention data were determined in duplicate for the different mobile phase conditions. Data were recorded as log k′ (capacity factor k′ = [tR – t0]/t0), where tR and t0 are the retention times of the sample and a nonretained molecule (citric acid), respectively. Thus, log kw^IAM values were calculated by an extrapolation method of the experimental equation, at 0% acetonitrile. Moreover, five gold standard compounds (caffeine, carbamazepine, ketoprofen, theobromine, and toluene) were checked daily.

For COC(=O)C[C@@H]1N=C(c2ccc(Cl)cc2)c2c(sc(C(=O)O)c2C)-n2c(C)nnc21 [PROTAC BET-binding moiety 2], the solubility at 1 h [1] was over 2240 µM, the chromatographic logD (physchem) was -0.03 and the “Log kw IAM” value [2] was 0.53.

From PMC9574862, “Designing Soluble PROTACs: Strategies and Preliminary Guidelines” (Journal of Medicinal Chemistry, 2022)
